The source of these data is PubChem BioAssay AID463141 (The Scripps Research Institute Molecular Screening Center, 2010).

Sequences of proteins named here, by UniProt entry; tags and fusion partners are left off.
UniProt P42574, whole entry D9A/D28A/D175A: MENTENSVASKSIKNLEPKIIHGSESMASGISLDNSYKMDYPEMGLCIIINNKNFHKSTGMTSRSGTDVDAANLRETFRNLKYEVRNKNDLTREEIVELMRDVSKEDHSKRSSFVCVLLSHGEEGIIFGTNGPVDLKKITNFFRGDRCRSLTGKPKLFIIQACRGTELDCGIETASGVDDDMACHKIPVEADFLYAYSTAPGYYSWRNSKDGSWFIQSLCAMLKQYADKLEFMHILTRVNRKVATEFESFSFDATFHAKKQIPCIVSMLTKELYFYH

This is a selection; strong and weak results do not stand in their true shares. Some structures show a salt or complex split into parts, the way the source records it. Calls of active or inactive are those of the source.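 How the source made its calls: active means activation above the mean of all tested compounds plus 3 SD (cut at about 21% in these data); inactive means the rest.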

The target of the experiment is Caspase-3 (Homo sapiens) (UniProt P42574). In words: activators of human procaspase-3 D3A mutant, primary screen, biochemical, absorbance, PC-3 D3A mutant, single concentration (AID 463141).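 Further: 0% = DMSO alone and 100% = DMSO wells spiked with extra 5 µM PC-3 D3A.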 Particulars: recombinant procaspase-3 D3A, Ac-DEVD-pNA absorbance 405 nm; at 8.5 µM; hits give high values.
As for `CC(C)c1ccc(OP(C)(=O)Nc2ccc(SC(F)(F)F)cc2)cc1` (stereo unspecified), the activation is inactive: 1.5%.

As for `CP(=O)(Nc1ccccc1F)Oc1ccccc1` (stereo unspecified), the activation was inactive: 0.02%.

Take `COc1ccc2c(c1O)-c1c(O)c(OC)cc3c1[C@H](C2)[N+](C)(C)CC3.O=[N+]([O-])c1cc([N+](=O)[O-])c([O-])c([N+](=O)[O-])c1[O-]`: the activation is inactive: 5.87%.

In the case of `O=C(OCCN1CCN(CCOCc2ccccc2)CC1)C(O)(c1ccccc1)c1ccccc1`, the activation was inactive: -3.8%.

With `O=C(OC1CN2CCC1CC2)c1ccc([N+](=O)[O-])cc1` (stereo unspecified), the activation is inactive: 0.01%.

Turning to `COc1ccc(OP(C)(=O)Nc2ccc(SC(F)(F)F)cc2)cc1` (stereo unspecified), the activation is inactive: 0.98%.

Consider `CCOC(=O)c1ccc(NP(C)(=O)Oc2ccc(F)cc2)cc1` (stereo unspecified), for which the activation is inactive: -4.15%.

In the case of `O=[N+]([O-])c1cc([N+](=O)[O-])c(OC2CCCCC2O)c([N+](=O)[O-])c1` (stereo unspecified), the activation is inactive: 1.88%.

For `CCCCCOc1ccc(NP(C)(=O)Oc2ccc(Cl)cc2Cl)cc1` (stereo unspecified), the activation is inactive: -2.85%.

On to `CP(=O)(Nc1ccccc1)Oc1ccc(F)cc1` (stereo unspecified), for which the activation is inactive: 1.04%.

Take `CCN(CC)CCCOC(=O)C(O)(c1ccccc1)C1CCCCC1` (stereo unspecified): the activation is inactive: -4.71%.

On to `COc1ccc(NP(C)(=O)Oc2ccccc2OC)cc1` (stereo unspecified), for which the activation is inactive: -3.88%.

Consider `CN(C)CCOC(=O)C(O)(c1ccccc1)C1CCCCC1` (stereo unspecified), for which the activation is inactive: -0.19%.

In the case of `COc1ccc(OP(C)(=O)Nc2cccc(Br)c2)cc1` (stereo unspecified), the activation is inactive: -2.51%.

In the case of `O=[N+]([O-])c1cc([N+](=O)[O-])c(NCC2CCS(=O)(=O)C2)c([N+](=O)[O-])c1` (stereo unspecified), the activation is inactive: -2.67%.

On to `CCOP(C)(=S)SCC(=O)NC(C)(CC)C(=O)O` (stereo unspecified), for which the activation was inactive: 9.43%.

On to `CP(=O)(Nc1ccc(SC(F)(F)F)cc1)Oc1ccc(F)cc1` (stereo unspecified), for which the activation is inactive: 1.35%.

With `Cc1ccccc1NP(C)(=O)Nc1ccccc1C`, the activation is inactive: 0.81%.

On to `CP(=O)(Nc1ccc2c(c1)OCCO2)Oc1ccccc1` (stereo unspecified), for which the activation is inactive: 3.31%.

With `CCc1ccc(OP(C)(=O)Nc2cccnc2)cc1` (stereo unspecified), the activation was inactive: -0.6%.

On to `CP(=O)(Oc1ccccc1)N1CCOC1=O` (stereo unspecified), for which the activation was inactive: 3.38%.

On to `O=C(OCCCN1CCCC1)C(O)(c1ccccc1)C1CCCCC1` (stereo unspecified), for which the activation is inactive: 0.76%.

Regarding `COc1ccccc1OP(C)(=O)Nc1c(C)n(C)n(-c2ccccc2)c1=O` (stereo unspecified), the activation was inactive: -2.46%.

Consider `COc1ccc(OP(C)(=O)Nc2ccc(Br)cc2)cc1` (stereo unspecified), for which the activation was inactive: -0.83%.

Take `CCN(CC)CC(O)COC(=O)C(O)(c1ccccc1)C1CCCCC1` (stereo unspecified): the activation is inactive: 7.42%.

On to `CN(C)C(=O)c1c([N+](=O)[O-])cc([N+](=O)[O-])cc1[N+](=O)[O-]`, for which the activation is inactive: 2.44%.
